Assay results reported in patent US5383848A, “Iontophoretic administration of drugs” (Gensia, Inc., priority 1991, dated 1995).

System: elevated heart rate
Experiment: Additional in vivo dog experiments: dermal clearance enhancer pretreatment then arbutamine TDI (Example C)
Design: species or system labrador dogs
Details: heart rate decline, Table VII, single dog run; listed as 1% Tolazoline
Method: Additional experiments were performed to study the effect of certain compositions on the offset time and dermal clearance in dogs.
In these experiments, the formulation to be tested was applied either topically or by transdermal iontophoresis (TDI) as described below.
Six labrador dogs (20 to 30 kg) were trained to lie quietly on a table. Before each experiment, three ECG electrodes (one lead) were applied on shaved areas of the back (near the front legs) to obtain the heart rate. The outer hind leg area (either right or left) was shaved prior to each experiment, with care taken not to cut or visibly damage the skin. […]
Each vasodilator that was delivered by TDI used a 1.8 cm^2 electrode (Graphic Controls, Buffalo, N.Y.) containing the vasodilator in a gel at the concentrations listed in experimental methods section. […] During this time the heart rate was continuously recorded (at 5 second intervals) with the ESA Research System. […]
Each topically applied vasodilator was applied to the skin in a volume of approximately 0.25 ml. The agent was allowed to absorb into the skin, during which time the heart rate was continuously recorded for 10 minutes using the ESA Research System.
To test if heat alone would produce sufficient vasodilation, a 60° C. hot pack was applied to the skin 10 minutes prior to drug delivery, during which time the heat rate was continuously recorded by the ESA System. […]

For c1ccc(CC2=NCCN2)cc1 [Tolazoline], the HALF-LIFE was 14.06 min and 32.06 min and 17.47 min and 19.23 min and 21.36 min and 10.47 min.

Several values for one entry are separate records, joined by “and”; a condition that tells them apart may be missing. Equal values may be shown once.
